Source: patent US20100016274A1, “BETA-LACTAM CANNABINOID RECEPTOR MODULATORS” (priority 2006, published 2010)

The chains behind the UniProt entries cited, without tags or fusion partners.
UniProt P34972, whole entry: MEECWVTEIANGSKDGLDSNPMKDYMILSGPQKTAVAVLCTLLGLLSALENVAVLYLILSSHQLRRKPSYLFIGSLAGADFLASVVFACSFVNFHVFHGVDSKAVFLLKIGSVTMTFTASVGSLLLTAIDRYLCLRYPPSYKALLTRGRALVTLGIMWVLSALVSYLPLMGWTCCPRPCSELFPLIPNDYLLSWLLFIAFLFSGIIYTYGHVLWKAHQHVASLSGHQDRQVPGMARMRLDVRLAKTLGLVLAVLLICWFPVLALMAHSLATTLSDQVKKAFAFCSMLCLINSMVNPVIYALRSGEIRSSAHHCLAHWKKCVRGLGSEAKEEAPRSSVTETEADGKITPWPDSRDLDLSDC
UniProt P21554, whole entry: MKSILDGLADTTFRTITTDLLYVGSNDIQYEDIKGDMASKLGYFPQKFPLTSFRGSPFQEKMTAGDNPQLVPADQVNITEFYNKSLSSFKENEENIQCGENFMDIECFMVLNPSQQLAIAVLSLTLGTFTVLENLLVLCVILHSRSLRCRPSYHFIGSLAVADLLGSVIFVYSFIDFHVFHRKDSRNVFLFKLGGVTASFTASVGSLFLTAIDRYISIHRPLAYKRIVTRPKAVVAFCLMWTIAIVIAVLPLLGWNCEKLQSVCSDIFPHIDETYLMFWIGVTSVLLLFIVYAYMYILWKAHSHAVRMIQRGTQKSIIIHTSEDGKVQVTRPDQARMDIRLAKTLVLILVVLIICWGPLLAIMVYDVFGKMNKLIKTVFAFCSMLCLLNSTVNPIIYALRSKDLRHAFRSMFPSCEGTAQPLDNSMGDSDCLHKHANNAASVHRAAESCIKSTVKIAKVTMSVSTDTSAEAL

Experiments:
[1] = target: cannabinoid receptor-2 (CB2), CB2R-containing cell membrane; hCB2 receptors (Homo sapiens, UniProt P34972); test: Cannabinoid Receptor-2 (CB2) Binding Assay, Method A using cell membranes (displacement of 3H-CP55940); settings: for IC50: displacement of 3H-CP55940 (1 nM), CB2R-containing cell membrane
[2] = target: cannabinoid receptor-1 (CB1), CB1R-containing cell membrane (Homo sapiens, UniProt P21554); settings: for IC50: displacement of 3H-CP55940 (1 nM) on CB1 receptors

SMILES | IC50 [2] | further results
O=C(NCc1cccc(C(F)(F)F)c1)[C@@H](CC(=O)N1CCC(CN2CCCCC2)CC1)N1C(=O)[C@@H](N2C(=O)OC[C@@H]2c2ccccc2)[C@H]1/C=C/c1ccccc1 | – | IC50 [1]: 1000 nM
COc1cccc(/C=C/[C@@H]2[C@H](N3C(=O)OC[C@@H]3c3ccccc3)C(=O)N2[C@@H](CCC(=O)N2CCN(C3CCCCC3)CC2)C(=O)N[C@@H]2CCCc3ccccc32)c1 | 1190 nM | Ki ([2]; displacement of 3H-CP55940 on CB1 receptors, from serial dilutions, non-linear regression): 595 nM
CSc1cccc(/C=C/[C@@H]2[C@H](N3C(=O)OC[C@@H]3c3ccccc3)C(=O)N2[C@@H](CCC(=O)N2CCN(C3CCCCC3)CC2)C(=O)N[C@@H]2CCCc3ccccc32)c1 | < 10000 nM | –
COc1cccc(C=CC2C(N3C(=O)OCC3c3ccccc3)C(=O)N2C(CCC(=O)N2CCN(C3CCCCC3)CC2)C(=O)NC2(c3ccccc3)CCCC2)c1 (stereo not shown) | < 10000 nM | –
O=C(NC1(c2ccccc2)CCCC1)[C@H](CCC(=O)N1CCN(C2CCCCC2)CC1)N1C(=O)[C@@H](N2C(=O)OC[C@@H]2c2ccccc2)[C@H]1/C=C/c1cccc(Cl)c1 | 10000 nM | –
O=C(N[C@@H]1CCCc2ccccc21)[C@H](CCC(=O)N1CCN(C2CCCCC2)CC1)N1C(=O)[C@@H](N2C(=O)OC[C@@H]2c2ccccc2)[C@H]1/C=C/c1cccc(F)c1 | 10000 nM | –
O=C(N[C@@H]1CCCc2ccccc21)[C@H](CCC(=O)N1CCN(C2CCCCC2)CC1)N1C(=O)[C@@H](N2C(=O)OC[C@@H]2c2ccccc2)[C@H]1/C=C/c1cccc(Cl)c1 | 10000 nM | –
O=C(NCc1cccc(C(F)(F)F)c1)[C@@H](CCCc1ccccc1)N1C(=O)[C@@H](N2C(=O)OC[C@@H]2c2ccccc2)[C@H]1/C=C/c1ccccc1 | – | IC50 [1]: 480 nM; Ki ([1]; displacement of 3H-CP55940, CB2R-containing cell membrane, from serial dilutions): 320 nM
